The values that follow are results of earlier work, collected in PMC9412994 (Pharmaceutics, 2022).

The test system of this series is P-gp. The note with it: radiolabeled domperidone; attributed to circulating radiometabolites; cited from earlier work.

With ^3H-domperidone, the “Change of Kp,brain in P-gp deficient mice” value is listed as “not increased”.
